Experimental data: article PMC5452035, “Structural insight into recognition of phosphorylated threonine‐4 of RNA polymerase II C‐terminal domain by Rtt103p” (EMBO Reports, 2017)

Target: T1, Rtt103p CID (Saccharomyces cerevisiae, UniProt Q05543)
T1 construct: Rtt103p CID (3‐131–6xHIS) was expressed and purified as previously described; 6xHis (C); made in house; host or cells: E. coli BL21-Codon Plus (DE3)-RIPL
T1 sequence (Q05543 3-131): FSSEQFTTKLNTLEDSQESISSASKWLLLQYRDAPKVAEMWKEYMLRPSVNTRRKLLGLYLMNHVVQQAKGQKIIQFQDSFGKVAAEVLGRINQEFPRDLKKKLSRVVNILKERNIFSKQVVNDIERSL
Assay: Equilibrium binding by fluorescence anisotropy (FA), wild-type Rtt103p CID
Set-up: species or system yeast
Settings: Rtt103p CID titrated into 10 nM FAM‐labelled CTD peptide, 10°C, 35 mM KH2PO4, 100 mM KCl, pH 6.8, 1:1 model with non‐specific binding, ± standard deviation of the fit, each data point average of three measurements

Work on `C[C@@H](O)[C@H](NC(=O)[C@@H]1CCCN1C(=O)[C@H](CO)NC(=O)[C@H](Cc1ccc(O)cc1)NC(=O)[C@H](CO)NC(=O)[C@@H]1CCCN1C(=O)[C@H](CO)NC(=O)[C@@H](NC(=O)[C@@H]1CCCN1C(=O)[C@H](CO)NC(=O)[C@H](Cc1ccc(O)cc1)NC(=O)[C@H](CO)NC(=O)[C@@H]1CCCN1C(=O)c1ccc2c(c1)C(=O)OC21c2ccc(O)cc2Oc2cc(O)ccc21)[C@@H](C)O)C(=O)N[C@@H](CO)C(=O)N1CCC[C@H]1C(=O)N[C@@H](CO)C(=O)O` [non‐phosphorylated CTD] yielded a Kd of 64 ± 2 µM.
